According to PubChem BioAssay AID651800 (The Scripps Research Institute Molecular Screening Center, 2012):
The entries are a selection whose mix differs from that of the whole data set. Active and inactive are the calls of the source. Cut-off read from the data, not from the text of the source: active = inhibition above about 19%; inactive = the rest.

test system: T-cell receptor (TCR); assay: inhibitors of human TCR-CD3 interaction, primary screen, biochemical, fluorescence, TAMRA-labeled TCR probe (AID 651800); conditions: at 9.4 µM, active compounds read high;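 note: recombinant mutant TCR 2C K166C tagged with TAMRA read by polarization; 0% = receptor in buffer alone and 100% = receptor with positive control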

Compound | inhibition
O=C(O)C(=O)c1ccc(N(CCCl)CCCl)cc1 | inactive: -2.48%
O=C(Nc1ccncc1[N+](=O)[O-])c1ccc([N+](=O)[O-])cc1[N+](=O)[O-] | inactive: -1.46%
O=C(COc1ccccc1)OC1CN2CCC1CC2 (stereo not given) | inactive: 2.48%
COC(=O)C1(C)COP(=O)(N2CCCC2)OC1 (stereo not given) | inactive: -0.68%
COP1(=S)c2c(C)nn(CCC#N)c2N=C(c2ccc(F)cc2)N1C (stereo not given) | inactive: 7.53%
CCC(C)N(CC(C)C)C(=S)SC(NC(C)=O)C(Cl)(Cl)Cl (stereo not given) | inactive: 4.31%
O=C(OC1CN2CCC1CC2)c1cccc([N+](=O)[O-])c1 (stereo not given) | inactive: -0.28%
CCOC(=O)c1ccc(NC(=O)C(C)(CCl)SC)cc1 (stereo not given) | inactive: 2.14%
COP(=O)(OC)N1CC1c1ccccc1 (stereo not given) | inactive: 1.1%
Cc1cc(SC(NC(=O)c2ccccc2)C(Cl)(Cl)Cl)nc(C(C)C)n1 (stereo not given) | inactive: 7.83%
CCCCOc1ccc(C(=O)NCC2(N3CCCCC3)CCCCC2)cc1OC | inactive: -3.02%
CCOC(=O)Nc1ccc([As](=O)(O)O)c(O)c1 | inactive: 0.91%
O=C(O)C(O)c1ccc(N(CCCl)CCCl)cc1 (stereo not given) | inactive: 6.33%
CC1CCNP(=O)(N(CCCl)CCCl)O1 (stereo not given) | inactive: 1.1%
O=P(Nc1ccccn1)(c1cccc2ccccc12)c1cccc2ccccc12 | inactive: -2.8%
Cc1cc(SC(NC=O)C(Cl)(Cl)Cl)ncn1 (stereo not given) | inactive: 2.08%
O=[N+]([O-])c1ccc(Nc2ccc(Oc3ccc([N+](=O)[O-])cc3[N+](=O)[O-])cc2)c([N+](=O)[O-])c1 | inactive: 5.05%
CCOC(=O)Nc1cccc([As](=O)(O)O)c1 | inactive: -3.07%
[N-]=[N+]=NC1CCCCC1NC(=O)c1cc([N+](=O)[O-])cc([N+](=O)[O-])c1 (stereo not given) | inactive: -0.53%
Cc1ccc(OP(=O)(Nc2ccc([N+](=O)[O-])cn2)Oc2ccc(C)cc2)cc1 | inactive: 1.95%
Cc1ccc2nc3c(c(C)c2c1)CC(C(Cl)Cl)S3 (stereo not given) | inactive: -6.74%
O=[N+]([O-])c1ccc(-c2cc([N+](=O)[O-])c(O)c([N+](=O)[O-])c2)cc1 | inactive: -4.08%
COc1cc(C(=O)NCC2(N3CCOCC3)CCCCC2)ccc1OCC(C)C | inactive: -0.71%
O=[As](O)(c1ccc(O)cc1)c1ccccc1O | inactive: 5.36%
C[As](=O)(O)c1cccc(C(=O)O)c1 | inactive: 4.71%

Compound | inhibition
CC(C)NC(=O)NP(=O)(Oc1ccccc1)Oc1ccccc1 | inactive: -4.17%
O=C(OC1CN2CCC1CC2)c1cccc2[nH]cnc12 (stereo not given) | inactive: -12.4%
CCN(CC)C(=S)SC(NC=O)C(Cl)(Cl)Cl (stereo not given) | inactive: 4.65%
ClCCSc1nnc(-c2cccnc2)o1 | inactive: -1.45%
COC(=O)C1(C)COP(=O)(N2CCCCCC2)OC1 (stereo not given) | inactive: 4.16%
CC(C)c1ccc(OP(=O)(Nc2ccccn2)Oc2ccccc2F)cc1 (stereo not given) | inactive: -4.14%
O=P1(N(CCCl)CCCl)OCCCN1CCCl (stereo not given) | inactive: -1.78%
O=P1(N(CCCl)CCCl)Nc2ccccc2N1 | inactive: -4.4%
COc1cc(I)ccc1[As](=O)(O)O | inactive: -3.18%
COc1ccc2nc(NP(=O)(c3ccccc3)c3ccccc3)sc2c1 | inactive: 2.8%
Cc1c2c(nc3ccccc13)SC(C(Cl)Cl)C2 (stereo not given) | inactive: 8.99%
Cc1cc(=O)[nH]c(N[N+](=O)[O-])n1 | inactive: 6.26%
O=C(OC1CN2CCC1CC2)C12CC3CC(CC(C3)C1)C2 (stereo not given) | inactive: -2.64%
O=[N+]([O-])c1cc(Oc2ccc([N+](=O)[O-])cc2C(F)(F)F)cc([N+](=O)[O-])c1 | inactive: 5.73%
COc1ccc(N/C(=N/P(=O)(N2CCOCC2)N2CCOCC2)N2CCOCC2)cc1 | inactive: -4.64%
Cc1cccc(OCC(=O)OC2CN3CCC2CC3)c1 (stereo not given) | inactive: -0.17%
O=[As](O)(c1cccc(O)c1)c1cccc(O)c1 | inactive: 4.52%
O=C(OC1CN2CCC1CC2)c1ccc(Cl)cc1 (stereo not given) | inactive: -8.21%
CS(=O)(=O)c1ccc(Cl)c(NC(=O)COC(=O)C(O)(c2ccccc2)c2ccccc2)c1 | inactive: -5.8%
O=[As](O)(O)c1cccnc1 | inactive: 1.56%
COc1cc(C(=O)NCC2(N3CCOCC3)CCCCC2)cc(Cl)c1OC(C)C | inactive: -9.33%
CCOP(=O)(Nc1cccc2ccccc12)OCC | inactive: 4.91%
COc1cc(C2NCCC3(OCCO3)C2(C)C)cc(OC)c1OC (stereo not given) | inactive: 6.61%
Nc1cccc2c([As](=O)(O)O)cccc12 | active: 56.5%
Cc1ccc(NCCc2c([N+](=O)[O-])cc([N+](=O)[O-])cc2[N+](=O)[O-])cc1 | inactive: 9.93%
